{"source": "patent US5593678A", "about": "“Protection of teleost fish” (University of Georgia Research Foundation, priority 1994, dated 1997)", "key": {"IM-9 target cells": {"tested_on": "IM-9 target cells", "conditions": "10 mM", "protocol": "In further studies, NCC were treated with different concentrations of protein phosphatase inhibitors for two hours and labeled IM-9 target cells were added for a four-hour microcytotoxicity assay (Table 8). […] To determine if the activating effects of the protein phosphatase inhibitors were reversible, NCC were treated for 90 minutes with NaF and vanadate and then the inhibitors were removed prior to addition of the labeled target cells."}, "[1]": {"tested_on": "NCC from stressed fish (lysis of IM-9 target cells)", "conditions": "Table 9", "protocol": "(§1) A ^51 Cr release assay was used to determine cytotoxicity. Target cells at 1-2×10^6 cells/ml were labeled with 100 μCi of sodium chromate (Amersham, Arlington Heights, Ill.). NCC effector cells were treated as previously described [Evans et al. (1988) supra], centrifuged (500 g), and resuspended in media and added at different E:T ratios to the labeled target cells in round-bottomed 96-well microtiter plates. This mixture was incubated (25° C.) for 4-6 hours and 100 μl of each supernatant was removed to determine radioactivity (Beckman Biogamma II Counter; Beckman Instruments, Irvine, Calif.). The results are expressed as either percentage specific release (SR)=[(test release--spontaneous release)/(total release--spontaneous release)]×100; percent inhibition=[(percentage control SR--percentage test SR)/percentage control SR]×100; and percentage increase=(percentage test SR--percentage control SR)/percentage control SR.\nA common observation in fish exposed to stress, e.g., toxicants, drastic temperature changes, handling, etc., is the temporary loss of NCC activity."}, "catfish [2]": {"tested_on": "catfish", "assay": "In vivo vanadate concentration titration, toxicity profile (immersion)"}, "[3]": {"tested_on": "NCC (lysis of IM-9 target cells)", "conditions": "for Percentage of control (NCC cytotoxic activity): 120 minutes", "protocol": "FIG. 4. Individual and combined effects of phosphatase inhibitors on NCC cytotoxicity, NCC (7×10^5 cells) were incubated with either media (.diamond.), vanadate (Δ) (5 mM). NaF (.smallcircle.) (20 mM), or both vanadate and NaF (.quadrature.) for the indicated time periods before addition to labeled IM-9 target cells.\nFIG. 5. Effects of removal of Na3 VO4 on NCC activation. NCC were harvested, incubated for three hours, washed, counted and added to duplicate tubes containing either media alone or media containing 2.5, 5 and 10 mM vanadate. Following a 90 minutes incubation time, the cells were either washed and resuspended in media (closed circles) or added directly (open circles) to wells containing ^51 chromium labeled IM-9 target cells (E:T ratio 40:1).\nFIG. 6. Effects of removal of NaF on NCC activation. NCC were harvested, incubated for three hours in media, washed, counted and added to duplicate tubes containing media alone or in the presence of 5, 10 and 20 mM NaF. Following a 90 minutes treatment time, NCC were either washed (closed circles) or added directly (open circles) to wells containing labeled IM-9 target cells (E:t ratio 40:1).\nFIG. 7. Effects of Na3 VO4 on NCC with different levels of cytotoxicity. NCC were harvested from anterior kidneys of fish from three different sources. The cells were incubated in media for three hours, washed, counted and added to test tubes containing either media alone or media with 2.5, 5 and 10 mM vanadate. Following a two hours incubation time, the effectors were added to wells containing labeled IM-9 cells at a 40:1 E:T ratio.\nFIG. 8. Effects of NaF on NCC with different levels of cytotoxicity. NCC were harvested from anterior kidneys of fish from three different sources. The cells were incubated in media for three hours, washed, counted and added to media or media with 5, 10 and 20 mM NaF. Following a two-hour incubation, NCC were added to wells containing ^51 chromium labeled IM-9 target cells for a final E:T ratio of 40:1.\nas §1\nNCC were obtained as previously described [Graves et al. (1984) supra]; Evans et al. (1984) supra]. […] NCC were then washed and resuspended at 20×10^6 cells/ml, and 35 μl aliquots were added to test tubes containing 315 μl media only (media control) or media containing the indicated treatments. After 2 hr incubation, the cells were mixed with ^51 Cr-labeled IM-9 target cells and incubated for 4-6 hours ([…]). Supernatants were harvested and cytotoxicity levels were calculated as previously described.\nMembrane phosphorylation is maintained through a delicate equilibrium between cellular kinase and phosphatase activities.\nIn further studies, NCC were treated with different concentrations of protein phosphatase inhibitors for two hours and labeled IM-9 target cells were added for a four-hour microcytotoxicity assay (Table 8)."}, "catfish [4]": {"tested_on": "catfish"}, "NCC": {"tested_on": "NCC", "conditions": "relatively high concentrations"}}, "note": "Where two headings read alike, the source gives them in different places."}
{"substance": "sodium orthovanadate", "values": [{"measurement": "nonspecific toxicity (release of chromium^51 from IM-9 targets)", "setting": "IM-9 target cells", "value": "less than 10%"}, {"measurement": "cytotoxic activity of NCC from stressed fish", "setting": "[1]", "value": "augmented cytotoxic activity from essentially zero to relatively high levels"}, {"measurement": "cytotoxic activity of NCC from stressed fish", "setting": "[1]; listed as sodium vanadate", "value": "significantly increased lysis of target cells"}, {"measurement": "well tolerated concentration", "setting": "catfish [2]", "value": "≤ 0.05", "unit": "mM"}, {"measurement": "Percentage of control (NCC cytotoxic activity)", "setting": "[3]; 2.5 mM, E:T 25:1", "value": 494.4, "unit": "%"}, {"measurement": "Percentage of control (NCC cytotoxic activity)", "setting": "[3]; 2.5 mM, E:T 50:1", "value": 155.3, "unit": "%"}, {"measurement": "Percentage of control (NCC cytotoxic activity)", "setting": "[3]; 2.5 mM, E:T 100:1", "value": 148.6, "unit": "%"}, {"measurement": "Percentage of control (NCC cytotoxic activity)", "setting": "[3]; 5 mM, E:T 25:1", "value": 664.4, "unit": "%"}, {"measurement": "Percentage of control (NCC cytotoxic activity)", "setting": "[3]; 5 mM, E:T 50:1", "value": 212.4, "unit": "%"}, {"measurement": "Percentage of control (NCC cytotoxic activity)", "setting": "[3]; 5 mM, E:T 100:1", "value": 162.1, "unit": "%"}, {"measurement": "Percentage of control (NCC cytotoxic activity)", "setting": "[3]; 10 mM, E:T 25:1", "value": 897.1, "unit": "%"}, {"measurement": "Percentage of control (NCC cytotoxic activity)", "setting": "[3]; 10 mM, E:T 50:1", "value": 225.8, "unit": "%"}, {"measurement": "Percentage of control (NCC cytotoxic activity)", "setting": "[3]; 10 mM, E:T 100:1", "value": 159.1, "unit": "%"}, {"measurement": "incubation time for maximum activation of cytotoxicity", "setting": "[3]; FIG. 4", "value": 60, "unit": "min"}, {"measurement": "cytotoxicity in presence of inhibitor, normal NCC", "setting": "[3]; FIG. 5, FIG. 6", "value": "significant increased cytotoxicity"}, {"measurement": "fish responders with low, medium, high cytotoxicity", "setting": "[3]; FIG. 7, FIG. 8", "value": "The greatest effects were observed with the low cytotoxicity groups"}, {"measurement": "response of NCC with low control cytotoxicity", "setting": "[3]; NCC with 2.0% control Specific Release, FIG. 7", "value": "highly responsive"}, {"measurement": "effect on NCC cytotoxicity", "setting": "[3]; Table 7", "value": "activated the cytotoxicity of NCC"}, {"measurement": "concentration at which toxic responses were not observed", "setting": "catfish [4]; exposed one time, immersion", "value": "0,025-0,100 mM"}, {"measurement": "concentration toxic to catfish", "setting": "catfish [4]; immersion", "value": "greater than 0.125 mM"}, {"measurement": "concentration lethal to live fish", "setting": "catfish [4]; in vivo", "value": "≥ 2500", "unit": "µM"}, {"measurement": "toxicity to NCC", "setting": "NCC", "value": "not toxic to NCC"}]}
